The chains behind the UniProt entries cited, without tags or fusion partners. Residues count along the entry.
UniProt P42226, whole entry: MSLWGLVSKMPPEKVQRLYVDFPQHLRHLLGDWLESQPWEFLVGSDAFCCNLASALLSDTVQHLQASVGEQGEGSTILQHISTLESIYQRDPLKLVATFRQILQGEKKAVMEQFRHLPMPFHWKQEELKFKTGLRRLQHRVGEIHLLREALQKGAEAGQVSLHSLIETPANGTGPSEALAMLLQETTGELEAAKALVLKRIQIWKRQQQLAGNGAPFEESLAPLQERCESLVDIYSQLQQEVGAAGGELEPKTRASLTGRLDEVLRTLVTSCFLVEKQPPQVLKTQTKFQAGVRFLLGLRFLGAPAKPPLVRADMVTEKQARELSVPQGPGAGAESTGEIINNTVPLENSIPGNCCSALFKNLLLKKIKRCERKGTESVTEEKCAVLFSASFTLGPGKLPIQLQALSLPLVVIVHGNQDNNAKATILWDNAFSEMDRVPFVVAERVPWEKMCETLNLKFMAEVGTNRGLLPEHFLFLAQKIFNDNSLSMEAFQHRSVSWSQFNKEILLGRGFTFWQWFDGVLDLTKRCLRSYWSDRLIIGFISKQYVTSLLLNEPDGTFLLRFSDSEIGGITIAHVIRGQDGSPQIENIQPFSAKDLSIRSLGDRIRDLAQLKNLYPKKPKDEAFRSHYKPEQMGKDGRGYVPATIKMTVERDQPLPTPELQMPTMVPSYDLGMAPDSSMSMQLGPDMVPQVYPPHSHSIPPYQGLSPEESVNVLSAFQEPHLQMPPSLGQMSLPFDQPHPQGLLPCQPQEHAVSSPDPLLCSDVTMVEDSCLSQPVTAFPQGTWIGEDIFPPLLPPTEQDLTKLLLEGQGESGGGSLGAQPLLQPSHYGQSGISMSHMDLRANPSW
UniProt P42226, 123-632 limits assumed: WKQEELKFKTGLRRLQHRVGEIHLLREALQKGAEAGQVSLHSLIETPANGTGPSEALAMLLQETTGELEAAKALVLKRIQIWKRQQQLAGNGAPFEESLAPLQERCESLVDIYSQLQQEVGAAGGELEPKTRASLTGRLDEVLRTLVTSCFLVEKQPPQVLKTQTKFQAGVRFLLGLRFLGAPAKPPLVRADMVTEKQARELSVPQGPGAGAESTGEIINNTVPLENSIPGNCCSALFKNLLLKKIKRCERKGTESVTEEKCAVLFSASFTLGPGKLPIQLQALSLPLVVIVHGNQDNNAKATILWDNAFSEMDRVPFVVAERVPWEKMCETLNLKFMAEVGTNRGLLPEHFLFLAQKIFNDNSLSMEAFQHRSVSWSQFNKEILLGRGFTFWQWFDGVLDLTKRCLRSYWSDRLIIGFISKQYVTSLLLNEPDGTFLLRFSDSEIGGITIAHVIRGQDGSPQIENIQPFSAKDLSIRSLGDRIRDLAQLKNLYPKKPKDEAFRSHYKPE

According to patent publication US20260124309A1, “STAT6 DEGRADERS AND USES THEREOF” (Kymera Therapeutics, Inc., priority 2023, published 2026):

Key:
[1] = target: biotinylated truncated STAT6 (123-632)-avi (Homo sapiens, UniProt P42226); experiment: STAT6 HTRF binding assay; conditions: read-out: STAT6 HTRF: Average IC50, 0.15 nM biotinylated truncated STAT6 (123-632)-avi, 20 nM fluorescein-labeled probe
[2] = target: STAT6 (Homo sapiens, UniProt P42226); experiment: STAT6 MSD degradation in A549 cells; conditions: for DC50: read-out: STAT6 MSD degradation DC50 (nM) 24 h
Summary of the method: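 A549 cells treated with a 9-point 1:3 series (top up to 10 uM) for 4 to 24 hours at 37° C., then lysed in RIPA. STAT6 quantified by sandwich MSD electrochemiluminescence immunoassay. DC50 and Dmax from four-parameter nonlinear fit, reported as letter-code bins.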

| Compound | IC50 ([1]; 30 minutes at room temperature) | STAT6 MSD degradation Dmax % 24 h [2] | DC50 [2] | IC50 ([1]; HTRF binding) |
| --- | --- | --- | --- | --- |
| CN(C)C(=O)c1cc2cc(C3=CCCN(C(=O)CCn4ccnn4)C3)cc(N3CC(C(=O)N4CCC(CN5CCN(c6cccc(C7CCC(=O)NC7=O)c6)CC5)CC4)C3)c2o1 (stereo not drawn) | < 0.1 µM | A (A (>90%)) | 1 to 10 nM | – |
| COc1cc(N2CC3(CCN(c4cc(F)c(-c5cc(C6=CCCN(C(=O)CCn7cccn7)C6)c(F)c6[nH]c(C(=O)N(C)C)cc56)cc4F)CC3)C2)c(F)cc1NC1CCC(=O)NC1=O (stereo not drawn) | – | B (B (>70-90%)) | 10 to 100 nM | < 0.1 µM |
| Cc1cc(CCC2CCN(c3ccc(C4CCC(=O)NC4=O)cc3F)CC2)ccc1-c1cc(C2=CCCN(C(=O)CCn3ccnn3)C2)c(F)c2[nH]c(C(=O)N(C)C)cc12 (stereo not drawn) | – | A (A (>90%)) | 1 to 10 nM | < 0.1 µM |
| COc1cc(N2CCC(N3CCN(c4cc(F)c(-c5cc(C6=CCCN(C(=O)CCn7cccn7)C6)c(F)c6[nH]c(C(=O)N(C)C)cc56)cc4F)CC3)CC2)c(F)cc1NC1CCC(=O)NC1=O (stereo not drawn) | – | A (A (>90%)) | < 1 nM | < 0.1 µM |
| COc1cc(C2CCN(CCc3ccc(C4CCC(=O)NC4=O)cc3F)CC2)ccc1-c1cc(C2=CCCN(C(=O)CCn3ccnn3)C2)c(F)c2[nH]c(C(=O)N(C)C)cc12 (stereo not drawn) | – | A (A (>90%)) | < 1 nM | < 0.1 µM |
| CC(=O)N1CCC[C@H](c2cc(-c3ccc(N4CCN(CCc5cccc6c5n(C)c(=O)n6C5CCC(=O)NC5=O)CC4)cc3OC(F)(F)F)c3cc(C(=O)N(C)C)[nH]c3c2F)C1 (stereo partly drawn) | – | B (B (>70-90%)) | < 1 nM | 1 to 10 µM |
| Cc1nn(C2CCC(=O)NC2=O)c2ccc(F)c(CCN3CCN(c4cc(Cl)c(-c5cc([C@H]6CCCN(C(=O)CCn7cccn7)C6)c(F)c6[nH]c(C(=O)N(C)C)cc56)cc4F)CC3)c12 (stereo partly drawn) | – | A (A (>90%)) | < 1 nM | 0.1 to 1 µM |
| CC(=O)N1CCC=C(c2cc(-c3ccc(C4CCN(c5cccc6c(C7CCC(=O)NC7=O)nn(C)c56)CC4)cc3C)c3cc(C(=O)N(C)C)[nH]c3c2F)C1 (stereo not drawn) | – | A (A (>90%)) | 1 to 10 nM | 1 to 10 µM |
| COc1cc([C@H]2CC[C@H](c3ccc(-c4cc(C5=CCCN(C(=O)CCn6ccnn6)C5)c(F)c5[nH]c(C(=O)N(C)C)cc45)cc3)CC2)c(F)cc1NC1CCC(=O)NC1=O (stereo partly drawn) | – | A (A (>90%)) | 1 to 10 nM | 0.1 to 1 µM |
| CN(C)C(=O)c1cc2c(-c3ccc(C4CCN(c5ccc(OC6CCC(=O)NC6=O)cc5F)CC4)cc3)cc(C3=CCCN(C(=O)CCn4cccn4)C3)c(F)c2[nH]1 (stereo not drawn) | – | A (A (>90%)) | 1 to 10 nM | < 0.1 µM |
| CN(C)C(=O)c1cc2c(-c3ccc(N4CCN(c5ccc(NC6CCC(=O)NC6=O)cc5F)CC4)c(F)c3)cc(C3=CCCN(C(=O)CCn4cccn4)C3)c(F)c2[nH]1 (stereo not drawn) | – | B (B (>70-90%)) | 1 to 10 nM | < 0.1 µM |
| C[C@@H](Cn1ccnn1)C(=O)N1CCC=C(c2cc(-c3ccc(C4CCN(c5ccc(NC6CCC(=O)NC6=O)cc5F)CC4)cc3)c3cc(C(=O)N(C)C)[nH]c3c2F)C1 (stereo partly drawn) | – | B (B (>70-90%)) | 1 to 10 nM | 0.1 to 1 µM |
| COc1cc(C2CCN(c3ccc(NC4CCC(=O)NC4=O)cc3F)CC2)ccc1-c1cc(C2=CCCN(C(=O)CCn3cccn3)C2)c(F)c2[nH]c(C(=O)N(C)C)cc12 (stereo not drawn) | – | A (A (>90%)) | < 1 nM | < 0.1 µM |
| CN(C)C(=O)c1cc2c(-c3ccc(C4CCN(c5ccc(NC6CCC(=O)NC6=O)cc5F)CC4)cc3)cc(C3=CCCN(C(=O)CCn4cccn4)C3)c(F)c2[nH]1 (stereo not drawn) | – | B (B (>70-90%)) | 1 to 10 nM | < 0.1 µM |
| COc1cc(C2CCN(c3cccc4c3n(C)c(=O)n4C3CCC(=O)NC3=O)CC2)ccc1-c1cc(C2=CCCN(C(=O)C(C)C)C2)c(F)c2[nH]c(C(=O)N(C)C)cc12 (stereo not drawn) | – | A (A (>90%)) | < 1 nM | 1 to 10 µM |
| Cc1cc(C2CCN(c3cccc4c3n(C)c(=O)n4C3CCC(=O)NC3=O)CC2)ccc1-c1cc(C2=CCCN(C(=O)[C@@H](C)Cn3cccn3)C2)c(F)c2[nH]c(C(=O)N(C)C)cc12 (stereo partly drawn) | – | C (C (>50-70%)) | 1 to 10 nM | 10 to 100 µM |
| COc1cc(C2CCN(c3cccc4c3n(C)c(=O)n4C3CCC(=O)NC3=O)CC2)ccc1-c1cc(C2CCCN(C(C)=O)C2)c(F)c2[nH]c(C(=O)N(C)C)cc12 (stereo not drawn) | 1 to 10 µM | A (A (>90%)) | < 1 nM | – |
| COc1cc(N2CCC3(CC2)CCN(c2cc(F)c(-c4cc(C5=CCCN(C(=O)CCn6cccn6)C5)c(F)c5[nH]c(C(=O)N(C)C)cc45)cc2F)C3)c(F)cc1NC1CCC(=O)NC1=O (stereo not drawn) | – | A (A (>90%)) | 1 to 10 nM | < 0.1 µM |

Like-named read-outs stand apart in the source and are kept apart here.
